Data: ChEMBL document CHEMBL2157973, “An efficient synthesis of 3-OBn-6β,14-epoxy-bridged opiates from naltrexone and identification of a related dual MOR inverse agonist/KOR agonist” (Bioorg Med Chem Lett, 2012)

Amino acid sequences for entries named in this document (tags omitted).
UniProt P35372, whole entry: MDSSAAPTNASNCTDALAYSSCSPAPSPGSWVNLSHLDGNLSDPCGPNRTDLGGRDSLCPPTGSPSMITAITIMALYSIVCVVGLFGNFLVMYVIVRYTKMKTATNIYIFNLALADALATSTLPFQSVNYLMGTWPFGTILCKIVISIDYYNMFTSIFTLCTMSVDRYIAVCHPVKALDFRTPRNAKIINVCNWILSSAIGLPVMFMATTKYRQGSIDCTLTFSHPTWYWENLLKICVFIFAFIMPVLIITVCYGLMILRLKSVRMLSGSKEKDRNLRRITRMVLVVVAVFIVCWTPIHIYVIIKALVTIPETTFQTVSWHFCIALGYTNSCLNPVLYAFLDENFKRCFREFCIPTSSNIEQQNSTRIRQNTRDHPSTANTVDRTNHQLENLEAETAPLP

Molecular target: Mu-type opioid receptor (Homo sapiens, UniProt P35372)
Experiment: Inverse agonist activity at human recombinant mu opioid receptor expressed in CHO cells after 3 hrs by [35S]GTPgammaS binding assay
Assay type: functional, cell-based

SMILES: Oc1ccc2c3c1O[C@H]1[C@H](O)CC[C@@]4(O)[C@@H](C2)N(CC2CC2)CC[C@]314
- EC50: 1.2 nM
